In publication PMC11089503, “Exploring Subsite Selectivity within Plasmodium vivaxN-Myristoyltransferase Using Pyrazole-Derived Inhibitors” (Journal of Medicinal Chemistry, 2024):
Where “and” joins values, the source holds several entries; their conditions need not be identical. Equal entries are not always repeated.

Chains of the proteins cited; added tags and fusions are not shown.
UniProt A5K1A2, entry or part of it: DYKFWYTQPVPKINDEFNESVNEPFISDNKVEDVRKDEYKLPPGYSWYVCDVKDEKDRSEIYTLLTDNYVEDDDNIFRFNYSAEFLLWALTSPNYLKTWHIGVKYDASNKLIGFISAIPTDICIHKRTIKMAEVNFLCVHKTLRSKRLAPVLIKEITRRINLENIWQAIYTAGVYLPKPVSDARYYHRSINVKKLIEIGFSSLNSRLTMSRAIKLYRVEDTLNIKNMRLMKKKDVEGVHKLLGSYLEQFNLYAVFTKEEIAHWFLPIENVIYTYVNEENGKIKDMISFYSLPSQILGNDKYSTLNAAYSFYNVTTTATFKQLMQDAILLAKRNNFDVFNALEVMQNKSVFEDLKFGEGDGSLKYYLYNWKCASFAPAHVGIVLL

Molecular target: PvNMT (Plasmodium vivax, UniProt A5K1A2)
Test: NMT activity assay (CPM fluorescence detection of free CoA), PvNMT
Settings: calculated as HsNMT IC50/PvNMT IC50

Cc1c(CCOc2ccc3ccccc3c2-c2ccnc(N3CCNCC3)c2)c(C(=O)N2CCOCC2)nn1C [Compound 10b, (1,5-Dimethyl-4-(2-((1-(2-(piperazin-1-yl)pyridin-4-yl)naphthalen-2-yl)oxy)ethyl)-1H-pyrazol-3-yl)(morpholino)methanone]
SI (enzyme selectivity): 125 and 125.3

Cc1c(CCOc2cccnc2-c2ccnc(N3CCNCC3)c2)c(C(=O)N2CCOCC2)nn1C [Compound 9b, (1,5-Dimethyl-4-(2-((2′-(piperazin-1-yl)-[2,4′-bipyridin]-3-yl)oxy)ethyl)-1H-pyrazol-3-yl)(morpholino)methanone]
SI (enzyme selectivity): 35.8

COC(=O)CNC(=O)c1nn(C)c(C)c1CCOc1ccccc1-c1ccnc(N2CCNCC2)c1 [Compound 8i, Methyl (1,5-Dimethyl-4-(2-(2-(2-(piperazin-1-yl)pyridin-4-yl)phenoxy)ethyl)-1H-pyrazole-3-carbonyl)glycinate]
SI (enzyme selectivity): 2.8

CC(=O)CNC(=O)c1nn(C)c(C)c1CCOc1ccccc1-c1ccnc(N2CCNCC2)c1 [Compound 8g, 1,5-Dimethyl-N-(2-oxopropyl)-4-(2-(2-(2-(piperazin-1-yl)pyridin-4-yl)phenoxy)ethyl)-1H-pyrazole-3-carboxamide]
SI (enzyme selectivity): 49.7

Cc1c(CCOc2ccccc2-c2ccnc(N3CCNCC3)c2)c(C(=O)NCC(=O)O)nn1C [Compound 8c, (1,5-Dimethyl-4-(2-(2-(2-(piperazin-1-yl)pyridin-4-yl)phenoxy)ethyl)-1H-pyrazole-3-carbonyl)glycine]
SI (enzyme selectivity): 0.8

Cc1c(CCOc2cccnc2-c2ccnc(N3CCNCC3)c2)c(C(=O)NCC(=O)O)nn1C [Compound 9c, (1,5-Dimethyl-4-(2-((2′-(piperazin-1-yl)-[2,4′-bipyridin]-3-yl)oxy)ethyl)-1H-pyrazole-3-carbonyl)glycine]
SI (enzyme selectivity): 48.3

Cc1c(CCOc2ccccc2-c2ccnc(N3CCNCC3)c2)c(C(=O)N2CCOCC2)nn1C [Compound 8b, (1,5-Dimethyl-4-(2-(2-(2-(piperazin-1-yl)pyridin-4-yl)phenoxy)ethyl)-1H-pyrazol-3-yl)(morpholino)methanone]
SI (enzyme selectivity): > 31 and 31.8

Cc1c(CCOc2ccccc2-c2ccnc(N3CCNCC3)c2)c(C(=O)NCCO)nn1C [Compound 8h, N-(2-Hydroxyethyl)-1,5-dimethyl-4-(2-(2-(2-(piperazin-1-yl)pyridin-4-yl)phenoxy)ethyl)-1H-pyrazole-3-carboxamide]
SI (enzyme selectivity): 12.9

Cc1c(CCOc2ccccc2-c2ccnc(N3CCNCC3)c2)c(C(=O)Nc2cccnc2)nn1C [Compound 8a, 1,5-Dimethyl-4-(2-(2-(2-(piperazin-1-yl)pyridin-4-yl)phenoxy)ethyl)-N-(pyridin-3-yl)-1H-pyrazole-3-carboxamide]
SI (enzyme selectivity): 4.9

Cc1c(CCOc2cccnc2-c2ccnc(N3CCNCC3)c2)c(C(=O)NCC(N)=O)nn1C [Compound 9d, N-(2-Amino-2-oxoethyl)-1,5-dimethyl-4-(2-((2′-(piperazin-1-yl)-[2,4′-bipyridin]-3-yl)oxy)ethyl)-1H-pyrazole-3-carboxamide]
SI (enzyme selectivity): 60.9

Cc1c(CCOc2ccccc2-c2ccnc(N3CCNCC3)c2)c(C(=O)NCCN)nn1C [Compound 8f, N-(2-Aminoethyl)-1,5-dimethyl-4-(2-(2-(2-(piperazin-1-yl)pyridin-4-yl)phenoxy)ethyl)-1H-pyrazole-3-carboxamide]
SI (enzyme selectivity): 1.2
